Target: High affinity 3',5'-cyclic-AMP phosphodiesterase 7A (Homo sapiens, UniProt Q13946)
Assay: Inhibition of human PDE7A1 expressed in insect cells assessed as inhibition of [3H]cAMP to [3H]AMP hydrolysis after 30 mins by scintillation counting

Chains of the proteins cited; added tags and fusions are not shown. Lines headed by an entry give the natural chain unless they say otherwise; changes in a name come on top.
UniProt Q13946: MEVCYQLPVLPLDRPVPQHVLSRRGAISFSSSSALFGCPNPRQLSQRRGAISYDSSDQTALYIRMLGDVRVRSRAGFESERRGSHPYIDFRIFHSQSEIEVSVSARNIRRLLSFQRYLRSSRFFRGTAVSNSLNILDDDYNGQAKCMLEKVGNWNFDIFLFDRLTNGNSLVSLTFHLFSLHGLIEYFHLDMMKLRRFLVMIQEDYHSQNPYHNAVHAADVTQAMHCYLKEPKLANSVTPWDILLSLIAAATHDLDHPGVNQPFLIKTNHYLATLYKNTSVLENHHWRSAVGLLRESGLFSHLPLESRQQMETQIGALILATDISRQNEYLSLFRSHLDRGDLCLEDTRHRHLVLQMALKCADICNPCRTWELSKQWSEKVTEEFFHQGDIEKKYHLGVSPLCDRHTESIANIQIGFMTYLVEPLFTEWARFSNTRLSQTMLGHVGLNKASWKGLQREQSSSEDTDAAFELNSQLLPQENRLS

With `C#Cc1csc2c(=O)n(CC)c(NC3CCCC3)nc12` the IC50 was 45 nM.

Reference: ChEMBL document CHEMBL3351455, “Discovery of 2-(cyclopentylamino)thieno[3,2-d]pyrimidin-4(3H)-one derivatives as a new series of potent phosphodiesterase 7 inhibitors” (J Med Chem, 2014)
